Only a part of the results on these compounds is given; other tests are left out.
Tested on: RDX degrading enzymic activity (partially purified extract)
Test: Nitrite / formaldehyde release from explosives by partially purified extract
Conditions: 4 M urea, 5 mM DTT

For `O=[N+]([O-])N1CN([N+](=O)[O-])CN([N+](=O)[O-])C1`, the “release of nitrite compared to spontaneous breakdown over the pH range” value (26 μg partially purified protein, 0.3 mM RDX, 37° C., 10 minutes, FIG. 6) was “significantly increases the release of nitrite” and the “amounts of formaldehyde and nitrite released” value (0.15 mM RDX, Tricine pH 8.5, 37° C., FIG. 7) was “similar”.
